# System: E. coli WP2s (λ)
# Experiment: lambda prophage induction in microsuspension assay (genotoxicity)
# Details: 24 hours
substance,measurement,setting,value
N-methyl-N-nitrosoguanidine,"Induction of prophage, PFU/DISH",0.03125 ug/ml,1813.5 PFU/DISH
same,"Induction of prophage, PFU/DISH",0.125 ug/ml,416.0 PFU/DISH
same,"Induction of prophage, PFU/DISH",50.000 ug/ml,2366.0 PFU/DISH
same,"Induction of prophage, PFU/DISH",200.000 ug/ml,473.5 PFU/DISH

# — patent US4720543A, “1a-7-substituted derivatives of mitomycin and uses thereof” (priority 1985, dated 1988)
